# Antibody variant affinities, Ab-14 heavy chain, assay B

Data: MIT Lincoln Laboratory AlphaSeq set, Li et al. 2023, doi:10.1038/s41467-023-39022-2, as distributed in FLAb.

Target: peptide PDVDLGDISGINAS, taken from heptad repeat 2 (HR2) of SARS-CoV-2 spike.

Parent: Ab-14, a human scFv built as VH, a 15-residue (Gly4Ser)3 linker, VL. Only the CDRs of the heavy chain vary.
VH: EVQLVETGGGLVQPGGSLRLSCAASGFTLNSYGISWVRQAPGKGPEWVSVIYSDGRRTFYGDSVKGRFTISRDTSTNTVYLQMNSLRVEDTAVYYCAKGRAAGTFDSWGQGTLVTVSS
VL: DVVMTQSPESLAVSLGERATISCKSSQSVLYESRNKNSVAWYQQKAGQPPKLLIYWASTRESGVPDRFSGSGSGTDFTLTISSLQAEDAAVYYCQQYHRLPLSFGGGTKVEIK

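Phage display of a naive human antibody library on the peptide gave the parent. Designed CDR sequences, proposed from the first random library and measured here. Group labels follow the data file (Ctrl: baseline library sampled from a position-specific scoring matrix, with some repeated check sequences; Rand: our label for a block that the file lists under HC and that is probably the random mutants of the ten best first-round binders; GP: Gaussian process model; GPLM: also part of the Gaussian process libraries; HC: hill climbing; Gen: genetic algorithm; Gibbs: Gibbs sampling; a sequence that several methods proposed may carry one label only). The scFvs were displayed on barcoded MATa yeast, the peptide on MATalpha yeast. Pairs that bind mate more often; barcode pairs of the diploids are counted by sequencing. A regression on co-assayed BCL2-family reference pairs converts the normalised counts of each replicate to an apparent Kd. The assay was run in six technical replicates.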

Each variant is given by its three heavy chain CDRs, as the data file delimits them; those of the parent are GFTLNSYGIS, VIYSDGRRTFYGDSVK, GRAAGTFDS. This list holds designs with at most six substitutions. Values are log10 of the apparent Kd in nM; lower means stronger binding. A mean of the replicates is given; it leaves out those without a signal. A pair that was not seen in any replicate is written "nd"; this usually means weak binding, but a binder can also be missed. A sequence that the file lists under several names has all its replicates pooled. Of ten entries with the parent sequence, four were seen in most replicates (averages 0.34 to 2.37), three in one and three in none, so single entries are noisy. A sequence measured in both rounds can read differently, since the two assays cover different ranges. As a blank, each scFv also met three strains without target: over all heavy chain designs, 1% of these pairings were detected, typically at 2.08 and seldom below 0.84. The authors averaged sequences with at least three values out of six and counted those with two or fewer as poor binders.

CDR-H1,CDR-H2,CDR-H3,group,mean log10 Kd (nM),replicates with signal
GFALNSYGIS,VIYSDGRRTFYGDSVK,GRQAGTFDS,Ctrl,1.24,6 of 6
GFTLNSYGIS,VIYADGRRTFYGDSVK,GRAAGTYKI,GP_HC,nd,0 of 6
EFTLNEYGIS,VIYSDGRRTFYGDSSK,GRAAVTFDQ,Rand,nd,0 of 6
GFTLNSYGIS,VIYSDGRRTFYGDSVK,GRANDTFDT,Ctrl,nd,0 of 6
GFSLNEYGIS,VIYSDGRRTFYMDSVK,GRNAGTFDS,GP_HC,0.01,6 of 6
GFELNNYGIS,VIYSDGRRTFYGDSVK,GEAAGTFDS,GP_Gen,0.72,6 of 6
GFTLNMYGIS,VIYSDGRRTIYSDSVR,GHAAGTFKS,Ctrl,nd,0 of 6
GFTLNDYGIS,VIYSDGRRTWYGDSVK,GRAAGTFVS,GP_HC,nd,0 of 6
GFTLNSYGIS,VIYSDGRRTFYGDSVK,GQTAGTFDK,GPLM_Gibbs,1.25,6 of 6
GFNLNSYGIS,VIYSDGRRTFYGDAVK,GQTAGTFDS,GP_Gen,1.13,6 of 6
GHTLNDYGIS,VIYSDGRRTQYIDSVK,GRAAGTFDS,GPLM_HC,nd,0 of 6
GFSLNSYGIS,VIYSDGRRTFYGDSVK,GMKAGTFDS,GP_Gibbs,1.36,6 of 6
GNTLNEYGIS,VIYSDGRRTFYTDSVK,GRQAGTFDS,GP_HC,0.82,6 of 6
GFQLNEYGIS,VIYSDGRRTFYGDSVK,GRLAGTFDT,GP_Gen,0.48,6 of 6
GFTLNSYGIS,VIYSDGRRTFYGDSVK,GRIIGTFDS,Ctrl,nd,0 of 6
QFTLNSYGIS,VQYSDGRRTQYGDSVK,GRQAGHFDS,Ctrl,nd,0 of 6
GFTLNQYGIS,VIYSDGKRTFYSDSVK,GKAAGTFDS,GPLM_HC,0.37,6 of 6
GFTLNSYGIS,VIYSDGRRTFYSDSVK,GNAAGTFDT,GPLM_Gen,0.43,6 of 6
GFELNEYGIS,VIYSDGRRTAYGDSVK,GRQAGTFDS,GP_Gibbs,0.02,6 of 6
GFTLNSYGMS,VIYSDGRRTWYGQSVK,GRAAGTFDS,Ctrl,4.53,1 of 6
GFTLNSYGIS,VIYSDGRRTFYIDSVK,GRAAGTFDM,Ctrl,nd,0 of 6
GFDLNSYGIS,VIYSDGRRTMYGDSVK,GRQAGTFDS,GP_Gen,0.21,6 of 6
GFTIDSYGIS,VIDSDGRRTFEGDSVK,GRAAGTALS,Rand,nd,0 of 6
GFTLNEYGIS,VIYADGRRTFYGDSVK,GSAAGCFDS,Ctrl,nd,0 of 6
GFTLNSYGIS,VIYSDGRRTAYGDNVK,GPAAGTFDS,Ctrl,3.57,1 of 6
GFTLNSYGIS,VIYSDGRRTAYGDSVK,GRAAGQFTS,Ctrl,nd,0 of 6
RFSLLSYGIS,VIYSDGRRTFYGDSVK,HRAAGTFDS,Ctrl,2.87,1 of 6
GFTLNSYGIS,VIYSDGRRTFYHDSVK,GRAAGTFDW,Ctrl,2.23,1 of 6
GEELNSYGIS,VIYSDGRRTEYGDSVK,GRAAGTFDS,Ctrl,nd,0 of 6
KFTLNEYGIS,VIYSDGRRTFYADSVK,GRCAGTFDS,GP_HC,1.67,3 of 6
GFTLNSYGIS,VIYSDGQRKFYGDSVK,GRAAGAFDV,Ctrl,nd,0 of 6
GFTLNSYGIS,VIYADGRRTFYGDSVK,GKAAGTFDQ,GPLM_Gen,-0.47,6 of 6
GFTLNEYGIS,VIYSDGRDTFYGDCVK,GMAAVTFDQ,Rand,nd,0 of 6
GFSLNSYGIS,VIYSDGRRTFYGDQVK,GREAGTFDK,GP_Gibbs,0.76,6 of 6
GFTLNEYGIS,VIYSDGRRTFYSDSVK,GHAAGTFDA,GP_HC,0.08,6 of 6
GFTLNDYGIS,VIYSDGRRTFYGDSVK,GKEAGTFDS,GP_HC,-0.33,6 of 6
GFTLNEYGIS,VIYSDGIRTFYGDSVK,GRAAGTFRS,GPLM_HC,0.90,6 of 6
GFTLNSYGIS,VIYSDGRRTFYGDSVS,GRAAGTFDV,Ctrl,nd,0 of 6
GFTLNSYGIS,VIYSDGKRTFYGDAVK,GEAAGTFDN,GPLM_Gibbs,1.79,3 of 6
GFALNSYGIS,VIYSDGRRTFYGDSVK,GRAIGTFDS,Ctrl,3.04,4 of 6
GFSLNSYGIS,VIYSDGRRTFYIDSVK,GRLAGEFDS,Ctrl,nd,0 of 6
GFQLNSYGIS,VIYSDGRRTFYEDNVK,GDAAGTFDS,Ctrl,nd,0 of 6
GFSLNEYGIS,VIYSDGRRTFYGDSVK,GHAAGTFDR,GP_Gen,0.18,6 of 6
GFELNSYGIS,VIYSDGRRTFYADSVK,GRAAGTFDK,GPLM_Gibbs,1.25,6 of 6
KFKLNSYGIS,VIYSDGRRTFYADSVK,GRNAGTFDS,GP_Gibbs,3.31,2 of 6
GFNLNSYGIT,VIYSDGRRTFYGDSVK,GRAAGTFDS,Ctrl,2.38,5 of 6
GFDLNSYGIS,VIYSDGRRTFYGDPVK,GKTAGTFDS,GP_Gen,0.19,6 of 6
GHTLNEYGIS,VIYSDGRRTMYGDSVK,GRAAGTFDS,Ctrl,1.11,6 of 6
GFSLNSYGIS,VIYSDGRRTFYADSVK,GKTAGTFDT,GPLM_Gen,-0.45,6 of 6
GFSLNSYGIS,VIYSDGRRSFYGDSVK,GRTAGTFDS,GPLM_Gen,0.83,6 of 6
GFTLNSYGIS,VIYSDGRRTFYGDSVK,GRNKGTFDS,Ctrl,nd,0 of 6
GFTLNDYGIS,VIYSDGRRTFYGDSVK,GRCAGTFDS,GPLM_HC,0.76,4 of 6
GFTNNSYGIS,VIYSDGRRTFYGDSVK,RRAAGTFDS,Ctrl,2.20,2 of 6
GFTLNSYGIS,SIYSDGRRTGYGDSVK,GRAAGTFDS,Ctrl,nd,0 of 6
GFTLNDPSIS,VIYADGRRTFYGDSVK,GRAAGTNKS,Rand,nd,0 of 6
GFQLNEYGIS,VIYSDGRRTFYGDSVK,GRTAGTFDA,GP_Gen,-0.20,6 of 6
GFTLNDYGIS,VIYSDGRRTFYGDSVK,GRHAGTFDK,GPLM_HC,1.88,2 of 6
GFELNSYGIS,VIYSDGWRTFYTDSVK,GRTAGTFDS,GP_Gibbs,0.86,6 of 6
GFNLNSYGIS,VIYSDGRRTFYADSVK,GRQAGTFDT,GPLM_Gibbs,1.66,6 of 6
GFPLNEYGIS,VIYSDGRRTFYGDSVK,GRVAGTFDS,Ctrl,nd,0 of 6
GFTLNEYGIS,VIYSDGRRTMYGDSVK,GRNAGTFDS,GPLM_Gen,0.13,6 of 6
GFTLSSYGIS,VIYSDGRRTFYGDSVK,GQNAGTFDM,Ctrl,nd,0 of 6
GFTLNSYGIS,VIYSDGQRTFYGDSVK,GRAAGTFDS,Ctrl,nd,0 of 6
GFHLNSYGIS,VIYSDGRRTFYKDSVK,GKAAGTFDS,GP_Gibbs,nd,0 of 6
GFTLNSYGIS,VIYADGRRTFYGDSVK,GKAAGTFDD,GPLM_Gen,0.28,6 of 6
GFNLNSYGIS,VIYSDGRRTFYADSVK,GWTAGTFDS,GPLM_Gibbs,nd,0 of 6
GFTLNDYGIS,VIYSDGRRTFYGDSVK,GRAAGTFDQ,Ctrl+GPLM_HC,0.99,8 of 12
GFTLNEYGIS,VIYSDGRRTFYMDSVK,GRHAGTFDS,GPLM_HC,0.98,6 of 6
GFTLNSYGIS,VIYSDGKRTFYQDSFK,GRLAGTFDS,Ctrl,nd,0 of 6
GFTLDSYGIS,VIYSDGRRTFYHDSVK,GQLAGTFDS,GP_HC,0.44,6 of 6
GFSLNSYGIS,VIYSDGRRTFYVDDVK,GRQAGTFDS,GPLM_Gibbs,0.33,6 of 6
KFTLNEYGIS,VIYSDGRRTFYGDSVK,GRAAVTFDL,GP_HC,nd,0 of 6
GFDLNSYGES,VKYSDGRRTFYGDSVK,GRAAGWFWS,Rand,nd,0 of 6
GFTINSYGIS,VIYSDGRRTAYGDSVK,EMAAGTFDS,Ctrl,3.90,2 of 6
GFTLNEYGIS,VIYSDGRRTFYTDSVK,GREAGTFDA,GP_HC,-0.36,6 of 6
GFTLNDYGIS,VIYSLGRRTQYIDSKK,GRAAGTFDS,Rand,nd,0 of 6
GFTLMSYGIS,VIYSDGRRTFYGDSVK,GRAAGTFDS,Ctrl,nd,0 of 6
GFTLNSYGIS,VIYSDGRRTFYADSVE,GREADTFDD,Ctrl,nd,0 of 6

For reference, 12 entries of the list once more:

CDR-H1	CDR-H2	CDR-H3	group	mean log10 Kd (nM)	replicates with signal
GFTLNDYGIS	VIYSDGRRTFYGDSVK	GRCAGTFDS	GPLM_HC	0.76	4 of 6
GFNLNSYGIS	VIYSDGRRTFYGDAVK	GQTAGTFDS	GP_Gen	1.13	6 of 6
GFDLNSYGIS	VIYSDGRRTMYGDSVK	GRQAGTFDS	GP_Gen	0.21	6 of 6
KFTLNEYGIS	VIYSDGRRTFYADSVK	GRCAGTFDS	GP_HC	1.67	3 of 6
GFELNSYGIS	VIYSDGRRTFYADSVK	GRAAGTFDK	GPLM_Gibbs	1.25	6 of 6
GFTLNDYGIS	VIYSDGRRTFYGDSVK	GRAAGTFDQ	Ctrl+GPLM_HC	0.99	8 of 12
GFELNEYGIS	VIYSDGRRTAYGDSVK	GRQAGTFDS	GP_Gibbs	0.02	6 of 6
GFTLNSYGIS	VIYSDGRRTFYADSVE	GREADTFDD	Ctrl	nd	0 of 6
GFTLNSYGIS	VIYSDGRRTFYGDSVK	GQTAGTFDK	GPLM_Gibbs	1.25	6 of 6
GFELNNYGIS	VIYSDGRRTFYGDSVK	GEAAGTFDS	GP_Gen	0.72	6 of 6
GFTLNEYGIS	VIYSDGRRTFYSDSVK	GHAAGTFDA	GP_HC	0.08	6 of 6
GFTLNSYGIS	VIYSDGKRTFYGDAVK	GEAAGTFDN	GPLM_Gibbs	1.79	3 of 6